SMILES strings stand for the structures.

Test [1] concerns EZH2. Put plainly: Western blot of EZH2 in SU-DHL6 cells. Type of test: cell-based. As to conditions: FIG. 33, 48 hours. For orientation: A western blot detects proteins with antibodies after separation by electrophoresis.
The test system of test [2] is EZH2. The test is described as follows: Western blot of EZH2 in SU-DHL4 cells. Type of test: cell-based. As to conditions: FIG. 33, 48 hours.

`CCN(c1cc(-c2ccc(CN3CCOCC3)cc2)cc(C(=O)NCc2c(C)cc(C)[nH]c2=O)c1C)C1CCOCC1` [EPZ-6438, reference compound]: the “Degradation of EZH2” value with EZH2 [1] and in the test with EZH2 [2] was “little or no effect” in each case.
